Here are results for 50 molecules from PubChem BioAssay AID624169 (The Scripps Research Institute Molecular Screening Center, 2012).

Amino acid sequences for entries named in this document (tags omitted).
UniProt P35363, whole entry: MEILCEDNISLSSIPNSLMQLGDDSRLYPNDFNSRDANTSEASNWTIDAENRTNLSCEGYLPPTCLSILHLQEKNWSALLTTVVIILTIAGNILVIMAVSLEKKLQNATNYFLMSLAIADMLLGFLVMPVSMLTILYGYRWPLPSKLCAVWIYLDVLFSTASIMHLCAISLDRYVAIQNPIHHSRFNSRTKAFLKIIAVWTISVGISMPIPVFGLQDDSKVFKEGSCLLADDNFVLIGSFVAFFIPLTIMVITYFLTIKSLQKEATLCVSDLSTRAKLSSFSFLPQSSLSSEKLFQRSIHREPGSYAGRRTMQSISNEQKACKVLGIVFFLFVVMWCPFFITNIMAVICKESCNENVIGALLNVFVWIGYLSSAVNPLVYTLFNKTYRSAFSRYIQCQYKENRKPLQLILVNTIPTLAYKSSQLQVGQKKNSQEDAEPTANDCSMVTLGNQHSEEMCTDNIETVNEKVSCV

Each structure is given as a SMILES string. Only a part is listed here, and it is no random draw. Calls of active or inactive are those of the source.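 How the source made its calls: active means activation above a run cutoff, the mean activation of all tested compounds plus 3 SD (cut at about 14% in these data); inactive means the rest.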

In the test the target is 5-hydroxytryptamine receptor 2A (Mus musculus) (UniProt P35363). Nature of the test: mouse Htr2a agonists via beta-arrestin recruitment, primary screen, cell-based, luminescence (AID 624169).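 Further: 0% = plate median of compound wells and 100% = 30 µM serotonin.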 To be noted: CHO-K1 mHTR2A beta-arrestin complementation, at 7.6 µM, stronger effect = higher value, percent of 30 µM serotonin response. For orientation: Recruitment of arrestin is a read-out of receptor activation apart from second messengers.
In the case of `COc1ccccc1OP(C)(=O)Nc1c(C)n(C)n(-c2ccccc2)c1=O` (stereo not given), the activation was inactive: -2.43%.

Consider `O=C(OCCCN1CCCC1)C(O)(c1ccccc1)C1CCCCC1` (stereo not given), for which the activation is inactive: -5.77%.

Consider `CCN(CC)CC(O)COC(=O)C(O)(c1ccccc1)C1CCCCC1` (stereo not given), for which the activation is inactive: -4.71%.

Consider `COc1ccc(OP(C)(=O)Nc2ccc(Br)cc2)cc1` (stereo not given), for which the activation is inactive: -2.63%.

For the molecule `CP(=O)(Nc1ccccn1)Oc1ccc(Cl)cc1` (stereo not given), the activation was inactive: -0.88%.

In the case of `CCOP(C)(=S)SCC(=O)NC(C)C(=O)O` (stereo not given), the activation was inactive: 8.27%.

As to `O=[N+]([O-])c1cc([N+](=O)[O-])c(O)c([N+](=O)[O-])c1.c1ccc(Oc2ccncc2)cc1`, the activation was inactive: -2.57%.

Consider `CCOC(=O)c1ccc(NP(C)(=O)Oc2ccc(OC)cc2)cc1` (stereo not given), for which the activation was inactive: 3.48%.

Take `CCc1ccc(OP(C)(=O)N2CCN(c3ccc([N+](=O)[O-])cc3)CC2)cc1` (stereo not given): the activation was inactive: 6.28%.

Take `CP(=O)(NC(=O)Nc1ccccc1)Oc1ccccc1` (stereo not given): the activation is inactive: 14.3%.

Regarding `Cc1cc(C)cc(OP(C)(=O)Nc2ccc(SC(F)(F)F)cc2)c1` (stereo not given), the activation was inactive: -3.75%.

For `CP(=O)(Nc1ccc(SC(F)(F)F)cc1)Oc1ccc(Cl)cc1` (stereo not given), the activation was inactive: -7.34%.

As for `Cc1ccc(Nc2c([N+](=O)[O-])cc([N+](=O)[O-])cc2[N+](=O)[O-])cc1`, the activation was inactive: -10.4%.

For the molecule `Cc1cccc(C)c1OP(C)(=O)Nc1ccc(SC(F)(F)F)cc1` (stereo not given), the activation is inactive: -1.6%.

For `CP(=O)(Oc1ccccc1)OC(c1ccccc1)C(F)(F)F` (stereo not given), the activation is inactive: -3.32%.

On to `COc1ccccc1OP(C)(=O)Nc1ccccc1` (stereo not given), for which the activation is inactive: 4.08%.

Consider `CP(=O)(Nc1ccccc1Br)Oc1ccccc1` (stereo not given), for which the activation was inactive: 2.78%.

With `CP(=S)(Nn1cnnc1)Oc1ccccc1` (stereo not given), the activation is inactive: -1.8%.

With `COc1ccccc1OP(C)(=O)Nc1cc(Cl)ccc1C` (stereo not given), the activation was inactive: 2.16%.

In the case of `COc1ccc(OP(C)(=O)Nc2cccc(F)c2)cc1` (stereo not given), the activation was inactive: 1.64%.

As to `Cc1cc(C)cc(OP(C)(N)=O)c1` (stereo not given), the activation was inactive: 0.82%.

For `CCOC(=O)c1ccc(NP(C)(=O)Oc2ccccc2)cc1` (stereo not given), the activation is inactive: -0.49%.

`COc1ccccc1OP(C)(=O)Nc1ccc(C)cc1` (stereo not given): the activation was inactive: 0.31%.

Turning to `Cc1ccc(NP(C)(=O)Oc2ccccc2)c(C)c1` (stereo not given), the activation is inactive: 1.83%.

Consider `CC(C)(C)c1ccc(OP(C)(=O)Nc2ccc(SC(F)(F)F)cc2)cc1` (stereo not given), for which the activation is inactive: -5.83%.

`Cc1cccc(C)c1OP(C)(N)=O` (stereo not given): the activation is inactive: 2.12%.

`O=[N+]([O-])c1ccc2c(c1)C=Nc1ccccc1O2`: the activation is inactive: 4.83%.

Regarding `O=[N+]([O-])c1cc([N+](=O)[O-])c(Nc2cccnc2)c([N+](=O)[O-])c1`, the activation was inactive: -3.23%.

For the molecule `COc1ccccc1-c1ccccn1.O=[N+]([O-])c1cc([N+](=O)[O-])c(O)c([N+](=O)[O-])c1`, the activation is inactive: -0.11%.

Turning to `CCN(CC)CCCOC(=O)C(O)(c1ccccc1)c1ccccc1`, the activation was inactive: -2.87%.

On to `CP(=O)(Nc1cccc(Br)c1)Oc1ccccc1` (stereo not given), for which the activation was inactive: -7.73%.

As to `Cc1cc(C)cc(OP(C)(=O)Nc2ccccn2)c1` (stereo not given), the activation is inactive: 1.13%.

Consider `Cc1ccc(C)c(NP(C)(=O)Oc2ccccc2)c1` (stereo not given), for which the activation was inactive: 5.22%.

Consider `Cc1cc(C)cc(OP(C)(=O)Nc2ccc(C)cc2C)c1` (stereo not given), for which the activation was inactive: -1.3%.

With `CCOC(=O)c1ccc(NP(C)(=O)Oc2cc(C)cc(C)c2)cc1` (stereo not given), the activation is inactive: -3.65%.

As for `COc1ccccc1OP(C)(=O)Nc1cccc(Br)c1` (stereo not given), the activation was inactive: -0.95%.

Turning to `CC1=NCCc2c1[nH]c1ccccc21.O=[N+]([O-])c1cc([N+](=O)[O-])c(O)c([N+](=O)[O-])c1`, the activation is inactive: 1.68%.

Consider `O=C(O)c1cccc(Nc2c([N+](=O)[O-])cc([N+](=O)[O-])cc2[N+](=O)[O-])c1`, for which the activation was inactive: -7.02%.

As to `CP(=O)(Nc1ccc(SC(F)(F)F)cc1)Oc1ccccc1` (stereo not given), the activation was inactive: -6.38%.

In the case of `CCCOc1ccc(NP(C)(=O)Oc2ccc(Cl)cc2)cc1` (stereo not given), the activation is inactive: -0.23%.

For `COc1ccc(-c2ccccn2)cc1.O=[N+]([O-])c1cc([N+](=O)[O-])c(O)c([N+](=O)[O-])c1`, the activation was inactive: 3.82%.

On to `CN1CCCCC1COC(=O)C1(O)c2ccccc2CCc2ccccc21` (stereo not given), for which the activation was inactive: -5.42%.

`COc1ccccc1OP(C)(=O)Nc1c(C)cccc1C` (stereo not given): the activation was inactive: 1.57%.

`O=[N+]([O-])c1cc([N+](=O)[O-])c(Nc2nnnn2CCO)c([N+](=O)[O-])c1`: the activation is inactive: -8.92%.

As to `CC1=C2N=C(C=C3N=C(C(C)=C4[N-][C@@](C)([C@@H]5N=C1[C@](C)(CCC(=O)NC[C@@H](C)OP(=O)([O-])O[C@H]1[C@@H](O)[C@@H](n6cnc7cc(C)c(C)cc76)O[C@@H]1CO)[C@H]5CC(N)=O)[C@@](C)(CC(N)=O)[C@@H]4CCC(N)=O)[C@@](C)(CC(N)=O)[C@@H]3CCC(N)=O)C(C)(C)[C@@H]2CCC(N)=O.[C-]#N.[Co+3]`, the activation was inactive: -2.12%.

Consider `CCOC(=O)C(CC)C1=NC(C)(C)Cc2ccccc21.O=[N+]([O-])c1cc([N+](=O)[O-])c(O)c([N+](=O)[O-])c1` (stereo not given), for which the activation was inactive: 2.45%.

Turning to `Cc1nc2ccc3ccccc3c2s1.O=[N+]([O-])c1cc([N+](=O)[O-])c(O)c([N+](=O)[O-])c1`, the activation is inactive: -3.36%.

As for `O=[N+]([O-])c1cc([N+](=O)[O-])c(-c2cnn(-c3ccccc3)c2)c([N+](=O)[O-])c1`, the activation is inactive: 2.47%.

Turning to `CN(Cc1cccnc1)C(=O)COc1ccc(Cl)c(Cl)c1.O=[N+]([O-])c1cc([N+](=O)[O-])c(O)c([N+](=O)[O-])c1`, the activation is inactive: -4.86%.

`O=[N+]([O-])c1cc([N+](=O)[O-])c(-n2nnc3ccccc32)c([N+](=O)[O-])c1`: the activation is inactive: 3.15%.
